# Values of other authors, collected in US20200315984A1 (priority 2013, published 2020).
# Some compounds may have been tested in ways that are not shown here.
# Settings: cited from earlier work
row,Compound,pKa
1,CCC(=O)N(c1ccccc1)C1(COC)CCN(CCn2nnn(CC)c2=O)CC1,6.5
2,CCC(=O)N(c1ccccc1)C1(COC)CCN(CCc2cccs2)CC1,8
3,fentanil,8.4
4,CCC(=O)N(c1ccccc1)C1(C(=O)OC)CCN(CCC(=O)OC)CC1,7
